# EP4831180A1, “NOVEL KINASE INHIBITOR” (dated 2026)
# The chains behind the UniProt entries cited, without tags or fusion partners. Residues count along the entry.
# UniProt Q9UM73, 19-1620 L1196M/G1202R limits assumed: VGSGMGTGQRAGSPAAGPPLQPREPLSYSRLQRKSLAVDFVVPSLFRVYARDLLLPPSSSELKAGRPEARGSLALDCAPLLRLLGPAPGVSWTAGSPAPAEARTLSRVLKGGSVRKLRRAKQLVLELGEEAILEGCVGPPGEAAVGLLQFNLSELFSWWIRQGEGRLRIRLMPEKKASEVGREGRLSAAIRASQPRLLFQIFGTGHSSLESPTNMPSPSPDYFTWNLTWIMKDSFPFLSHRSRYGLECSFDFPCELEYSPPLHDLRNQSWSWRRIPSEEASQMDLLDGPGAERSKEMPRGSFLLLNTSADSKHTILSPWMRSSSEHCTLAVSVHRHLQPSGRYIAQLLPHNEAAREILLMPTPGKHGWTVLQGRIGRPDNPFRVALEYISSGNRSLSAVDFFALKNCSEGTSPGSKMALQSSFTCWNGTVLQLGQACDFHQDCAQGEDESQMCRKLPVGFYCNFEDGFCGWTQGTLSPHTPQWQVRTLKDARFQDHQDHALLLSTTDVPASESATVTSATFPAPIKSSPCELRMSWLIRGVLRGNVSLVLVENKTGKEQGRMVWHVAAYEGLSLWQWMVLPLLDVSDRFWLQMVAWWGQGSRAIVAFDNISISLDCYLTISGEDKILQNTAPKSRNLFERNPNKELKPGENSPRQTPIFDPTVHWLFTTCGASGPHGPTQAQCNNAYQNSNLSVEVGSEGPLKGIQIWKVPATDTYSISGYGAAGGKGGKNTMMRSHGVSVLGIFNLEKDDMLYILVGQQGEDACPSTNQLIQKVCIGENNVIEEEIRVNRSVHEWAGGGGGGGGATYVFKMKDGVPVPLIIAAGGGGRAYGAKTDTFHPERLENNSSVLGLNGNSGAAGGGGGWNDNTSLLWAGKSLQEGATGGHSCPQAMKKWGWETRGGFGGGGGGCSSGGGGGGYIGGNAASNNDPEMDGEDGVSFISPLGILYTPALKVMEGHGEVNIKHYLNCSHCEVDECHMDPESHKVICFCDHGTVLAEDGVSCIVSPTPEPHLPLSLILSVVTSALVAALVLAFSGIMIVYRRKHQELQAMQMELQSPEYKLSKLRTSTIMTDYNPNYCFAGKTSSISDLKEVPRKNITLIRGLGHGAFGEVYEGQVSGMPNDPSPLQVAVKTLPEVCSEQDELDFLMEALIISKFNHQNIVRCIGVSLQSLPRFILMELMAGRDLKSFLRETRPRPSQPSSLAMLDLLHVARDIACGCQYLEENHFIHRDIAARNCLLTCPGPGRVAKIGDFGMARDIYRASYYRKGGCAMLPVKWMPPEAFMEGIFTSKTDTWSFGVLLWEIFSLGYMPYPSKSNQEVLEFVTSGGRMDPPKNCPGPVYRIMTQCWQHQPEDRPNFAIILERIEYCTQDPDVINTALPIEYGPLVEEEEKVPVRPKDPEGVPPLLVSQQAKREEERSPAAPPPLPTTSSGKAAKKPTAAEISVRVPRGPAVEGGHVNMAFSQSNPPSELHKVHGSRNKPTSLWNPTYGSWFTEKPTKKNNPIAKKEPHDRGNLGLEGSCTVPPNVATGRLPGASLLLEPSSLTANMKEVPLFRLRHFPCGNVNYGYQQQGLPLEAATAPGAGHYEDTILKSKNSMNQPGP
# UniProt Q9UM73, 19-1620 I1171N/D1203N limits assumed: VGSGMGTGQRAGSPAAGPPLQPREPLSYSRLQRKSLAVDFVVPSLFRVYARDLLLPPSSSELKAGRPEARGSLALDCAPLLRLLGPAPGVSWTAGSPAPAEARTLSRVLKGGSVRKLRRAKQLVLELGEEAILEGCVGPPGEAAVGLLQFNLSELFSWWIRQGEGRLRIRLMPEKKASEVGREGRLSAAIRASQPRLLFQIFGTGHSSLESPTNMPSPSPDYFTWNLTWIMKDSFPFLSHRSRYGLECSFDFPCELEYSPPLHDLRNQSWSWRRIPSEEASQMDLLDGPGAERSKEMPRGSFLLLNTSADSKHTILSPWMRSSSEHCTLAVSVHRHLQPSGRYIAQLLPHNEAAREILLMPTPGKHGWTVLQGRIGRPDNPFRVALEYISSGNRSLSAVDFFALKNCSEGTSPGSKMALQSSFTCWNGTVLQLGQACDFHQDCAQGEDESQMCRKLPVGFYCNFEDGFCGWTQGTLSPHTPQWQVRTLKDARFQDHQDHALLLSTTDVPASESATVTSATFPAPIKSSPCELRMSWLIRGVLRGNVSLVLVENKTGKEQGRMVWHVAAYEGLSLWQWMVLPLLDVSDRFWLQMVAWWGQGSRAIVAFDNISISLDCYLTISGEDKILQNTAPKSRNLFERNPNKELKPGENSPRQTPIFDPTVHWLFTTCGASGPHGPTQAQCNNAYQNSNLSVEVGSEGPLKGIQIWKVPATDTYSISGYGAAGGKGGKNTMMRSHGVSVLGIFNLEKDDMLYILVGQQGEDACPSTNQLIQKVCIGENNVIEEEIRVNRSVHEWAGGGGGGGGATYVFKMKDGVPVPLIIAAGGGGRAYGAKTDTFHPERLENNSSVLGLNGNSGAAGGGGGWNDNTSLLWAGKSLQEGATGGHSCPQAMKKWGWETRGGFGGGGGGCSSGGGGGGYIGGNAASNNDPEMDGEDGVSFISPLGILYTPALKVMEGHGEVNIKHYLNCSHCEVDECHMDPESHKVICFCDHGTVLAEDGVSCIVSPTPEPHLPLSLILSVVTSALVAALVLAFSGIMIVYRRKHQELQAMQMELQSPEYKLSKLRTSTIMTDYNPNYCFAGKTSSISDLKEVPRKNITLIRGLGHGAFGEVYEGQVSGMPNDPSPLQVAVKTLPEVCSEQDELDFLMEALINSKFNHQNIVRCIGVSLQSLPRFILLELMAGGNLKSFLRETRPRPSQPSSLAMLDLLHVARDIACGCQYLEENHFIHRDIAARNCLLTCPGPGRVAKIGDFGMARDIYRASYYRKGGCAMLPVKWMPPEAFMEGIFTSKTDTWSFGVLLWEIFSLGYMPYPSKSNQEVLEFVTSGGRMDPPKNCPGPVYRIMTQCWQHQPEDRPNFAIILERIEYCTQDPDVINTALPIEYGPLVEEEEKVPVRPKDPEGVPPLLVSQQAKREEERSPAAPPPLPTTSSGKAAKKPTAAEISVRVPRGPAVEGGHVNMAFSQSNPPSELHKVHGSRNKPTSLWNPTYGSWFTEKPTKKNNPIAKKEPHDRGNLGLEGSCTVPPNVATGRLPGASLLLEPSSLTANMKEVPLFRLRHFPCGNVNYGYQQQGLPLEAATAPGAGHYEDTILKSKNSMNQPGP
# Tests used:
# [1] = test system: Baf3 EML4-ALK V1^G1202R/L1196M cells; conditions: read-out: BaF3 EML4-ALK^G1102R/L1196M, IC50; 3 days incubation, Cell-Titer Glo
# [2] = test system: Baf3 EML4-ALK V1^I1171N/D1203N cells; conditions: read-out: BaF3 EML4-ALK^I1171N/D1203N IC50; 3 days incubation, Cell-Titer Glo
# [3] = Pharmacokinetics in rats after single oral gavage dose; conditions: male SD rats, single oral gavage 5 mg/kg, plasma
# His-ALK^G1202R/L1196M = His-ALK^G1202R/L1196M (Homo sapiens, UniProt Q9UM73, G1202R/L1196M); test: ALK G1202R/L1196M compound mutant kinase inhibitory activity assay (HTRF); conditions: read-out: ALK^G1202R/L1196M Enzyme, IC50, ATP 4 µM, enzyme 0.5 nM, 1 hour at 23 °C
# His-ALK^I1171N/D1203N = His-ALK^I1171N/D1203N (Homo sapiens, UniProt Q9UM73, D1203N/I1171N); test: ALK I1171N/D1203N compound mutant kinase inhibitory activity assay (HTRF); conditions: read-out: ALK^I1171N/D1203N Enzyme, IC50, ATP 1 µM, enzyme 0.3 nM, 1 hour at 23 °C
Compound,IC50 [1] [nM],IC50 [2] [nM],AUC0-inf [3] [ng·h/mL],Cmax [3] [ng/mL],T1/2 [3] [h],Tmax [3] [h],IC50 (His-ALK^G1202R/L1196M) [nM],IC50 (His-ALK^I1171N/D1203N) [nM]
CCn1nc(C#Cc2cnc(N)cn2)c2c1-c1cnc(N)c(c1)O[C@H](C)c1cc(F)ccc1-c1nn(C)cc1C2,< 10,< 10,9130,1140,10.0,2.83,< 5,
CCn1nc(C#Cc2cncnc2)c2c1-c1cnc(N)c(c1)O[C@H](C)c1cc(F)ccc1-c1nn(C)cc1C2,< 10,< 10,,,,,< 5,< 5
CCn1nc(C#Cc2cn(C)nn2)c2c1-c1cnc(N)c(c1)O[C@H](C)c1cc(F)ccc1-c1nn(C)cc1C2,< 10,< 10,13245,2012,3.81,1.00,< 5,< 5
CCn1nc(C#CC(C)(C)NS(C)(=O)=O)c2c1-c1cnc(N)c(c1)O[C@H](C)c1cc(F)ccc1-c1nn(C)cc1C2,< 10,< 10,,,,,< 5,< 5
CCn1nc(C#CCN2CCN(C)CC2)c2c1-c1cnc(N)c(c1)O[C@H](C)c1cc(F)ccc1-c1nn(C)cc1C2,< 10,< 10,,,,,< 5,< 5
CCn1nc(C#Cc2cnn(C)c2)c2c1-c1cnc(N)c(c1)O[C@H](C)c1cc(F)ccc1-c1nn(C)cc1C2,< 10,< 10,,,,,< 5,< 5
CCn1nc(C#CCCN)c2c1-c1cnc(N)c(c1)O[C@H](C)c1cc(F)ccc1-c1nn(C)cc1C2,< 10,< 10,,,,,< 5,< 5
CCn1nc(C#CCN2CCCC2=O)c2c1-c1cnc(N)c(c1)O[C@H](C)c1cc(F)ccc1-c1nn(C)cc1C2,< 10,< 10,,,,,< 5,< 5
CCn1nc(C#Cc2cnc(N)nc2)c2c1-c1cnc(N)c(c1)O[C@H](C)c1cc(F)ccc1-c1nn(C)cc1C2,< 10,< 10,,,,,< 5,< 5
C=Cc1nn(CC)c2c1Cc1cn(C)nc1-c1ccc(F)cc1[C@@H](C)Oc1cc-2cnc1N,< 10,< 10,,,,,< 5,< 5
CCn1nc(C#CC(=O)N2CCN(C)CC2)c2c1-c1cnc(N)c(c1)O[C@H](C)c1cc(F)ccc1-c1nn(C)cc1C2,< 10,< 10,,,,,< 5,< 5
CCn1nc(C#C[C@H](C)O)c2c1-c1cnc(N)c(c1)O[C@H](C)c1cc(F)ccc1-c1nn(C)cc1C2,< 10,< 10,,,,,< 5,< 5
CCn1nc(C#C[C@@H](C)O)c2c1-c1cnc(N)c(c1)O[C@H](C)c1cc(F)ccc1-c1nn(C)cc1C2,< 10,< 10,,,,,< 5,< 5
CCn1nc(C#CC2CCCO2)c2c1-c1cnc(N)c(c1)O[C@H](C)c1cc(F)ccc1-c1nn(C)cc1C2 (stereo partly shown),< 10,< 10,,,,,< 5,< 5
"(19R)-3-ethyl-16-fluoro-10,19-dimethyl-5-(prop-1-yn-1-yl)-20-oxa-3,4,10, 11,23-pentaazapentacyclo[19.3.1.0^8,12.0^13,18.0^2,6]pentacosa-1(25),2(6),4,8(9),11,13(18),14,16,21 (22),23-decaen-22-amine",< 10,< 10,,,,,< 5,< 5
CCn1nc(C#CCCF)c2c1-c1cnc(N)c(c1)O[C@H](C)c1cc(F)ccc1-c1nn(C)cc1C2,< 10,< 10,,,,,< 5,< 5
CCn1nc(C#CC2CNCCO2)c2c1-c1cnc(N)c(c1)O[C@H](C)c1cc(F)ccc1-c1nn(C)cc1C2 (stereo partly shown),< 10,< 10,,,,,< 5,< 5

Compound,IC50 [1] [nM],IC50 [2] [nM],AUC0-inf [3] [ng·h/mL],Cmax [3] [ng/mL],T1/2 [3] [h],Tmax [3] [h],IC50 (His-ALK^G1202R/L1196M) [nM],IC50 (His-ALK^I1171N/D1203N) [nM]
CCn1nc(C#CC2(O)CC2)c2c1-c1cnc(N)c(c1)O[C@H](C)c1cc(F)ccc1-c1nn(C)cc1C2,< 10,< 10,,,,,< 5,< 5
CCn1nc(C#CCC2(O)CCC2)c2c1-c1cnc(N)c(c1)O[C@H](C)c1cc(F)ccc1-c1nn(C)cc1C2,< 10,< 10,,,,,< 5,< 5
CCn1nc(C#C[C@@H]2CCOC2)c2c1-c1cnc(N)c(c1)O[C@H](C)c1cc(F)ccc1-c1nn(C)cc1C2,< 10,< 10,,,,,< 5,< 5
CCn1nc(C#CCN2CCN(C3CC3)CC2)c2c1-c1cnc(N)c(c1)O[C@H](C)c1cc(F)ccc1-c1nn(C)cc1C2,< 10,< 10,,,,,< 5,< 5
CCn1nc(/C=C/COC)c2c1-c1cnc(N)c(c1)O[C@H](C)c1cc(F)ccc1-c1nn(C)cc1C2,< 10,< 10,10063,3801,2.98,0.33,< 5,
CCn1nc(C#Cc2ccc(CO)nc2)c2c1-c1cnc(N)c(c1)O[C@H](C)c1cc(F)ccc1-c1nn(C)cc1C2,< 10,< 10,,,,,< 5,< 5
CCn1nc(C#Cc2ccc(=O)n(C)c2)c2c1-c1cnc(N)c(c1)O[C@H](C)c1cc(F)ccc1-c1nn(C)cc1C2,< 10,< 10,,,,,< 5,< 5
CCn1nc(C#CCN2CCN(CCO)CC2)c2c1-c1cnc(N)c(c1)O[C@H](C)c1cc(F)ccc1-c1nn(C)cc1C2,< 10,< 10,,,,,< 5,< 5
CCn1nc(C#Cc2ccnnc2)c2c1-c1cnc(N)c(c1)O[C@H](C)c1cc(F)ccc1-c1nn(C)cc1C2,< 10,< 10,,,,,< 5,< 5
CCn1nc(C#CC2CCN(C(C)=O)CC2)c2c1-c1cnc(N)c(c1)O[C@H](C)c1cc(F)ccc1-c1nn(C)cc1C2,< 10,< 10,,,,,< 5,< 5
CCn1nc(C#Cc2cncn2C(F)F)c2c1-c1cnc(N)c(c1)O[C@H](C)c1cc(F)ccc1-c1nn(C)cc1C2,< 10,< 10,,,,,< 5,< 5
CCn1nc(C#CC2CCOCC2)c2c1-c1cnc(N)c(c1)O[C@H](C)c1cc(F)ccc1-c1nn(C)cc1C2,< 10,< 10,,,,,< 5,< 5
CCn1nc(C#CC2COC2)c2c1-c1cnc(N)c(c1)O[C@H](C)c1cc(F)ccc1-c1nn(C)cc1C2,< 10,< 10,,,,,< 5,< 5
CCn1nc(C#Cc2cnc(CO)nc2)c2c1-c1cnc(N)c(c1)O[C@H](C)c1cc(F)ccc1-c1nn(C)cc1C2,< 10,< 10,,,,,< 5,< 5
CCn1nc(C#CCN(C)C)c2c1-c1cnc(N)c(c1)O[C@H](C)c1cc(F)ccc1-c1nn(C)cc1C2,< 10,< 10,,,,,< 5,< 5
CCn1nc(C#Cc2cnco2)c2c1-c1cnc(N)c(c1)O[C@H](C)c1cc(F)ccc1-c1nn(C)cc1C2,< 10,< 10,,,,,< 5,< 5
